Data on one compound can be found in ChEMBL document CHEMBL1159159.

Chains of the proteins cited; added tags and fusions are not shown.
UniProt P08842, whole entry, looked up: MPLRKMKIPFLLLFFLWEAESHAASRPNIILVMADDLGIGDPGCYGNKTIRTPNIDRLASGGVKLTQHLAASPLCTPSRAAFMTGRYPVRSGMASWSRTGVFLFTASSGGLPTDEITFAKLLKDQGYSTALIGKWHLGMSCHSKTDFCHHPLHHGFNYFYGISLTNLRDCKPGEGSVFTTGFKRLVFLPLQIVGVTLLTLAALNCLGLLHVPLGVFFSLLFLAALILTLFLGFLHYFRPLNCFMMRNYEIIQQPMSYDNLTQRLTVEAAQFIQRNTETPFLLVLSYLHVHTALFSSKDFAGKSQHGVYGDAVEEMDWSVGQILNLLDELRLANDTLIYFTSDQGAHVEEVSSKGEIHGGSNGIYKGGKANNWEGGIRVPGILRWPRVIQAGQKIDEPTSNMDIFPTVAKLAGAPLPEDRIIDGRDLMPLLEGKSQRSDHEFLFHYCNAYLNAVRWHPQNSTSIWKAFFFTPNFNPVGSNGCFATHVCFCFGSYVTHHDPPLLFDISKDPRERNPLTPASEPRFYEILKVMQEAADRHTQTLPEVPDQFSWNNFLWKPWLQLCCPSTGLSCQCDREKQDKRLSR

Each structure is given as a SMILES string.

Assay [1] concerns the target T1, Steryl-sulfatase (Homo sapiens, UniProt P08842). The assay is described as follows: Inhibition against estrone sulfatase in placental preparation.
The target in assay [2] is T1, Steryl-sulfatase. The assay is described as follows: Binding affinity against estrone sulfatase in placental preparation.
Assay [3] addresses T1, Steryl-sulfatase. The assay is described as follows: Binding affinity against estrone sulfatase in breast tumor preparations.

Usually IC50 stands for the midpoint of a concentration-inhibition curve. Read a low IC50 as greater potency in that assay. As usually defined, the Ki is the equilibrium dissociation constant of an inhibitor or competing ligand from its target. Read a low Ki as higher affinity. `C[C@]12CC[C@@H]3c4ccc(O[P@](C)(=O)S)cc4CC[C@H]3[C@@H]1CCC2=O` yielded a half-inhibitory concentration (IC50) against Steryl-sulfatase [1] of 36 µM. In addition, the Ki on Steryl-sulfatase [2] was determined as 15 µM; at Steryl-sulfatase [3], 33 µM.
